Literature values, collected in PMC11416411, “TDP-43 regulates LC3ylation in neural tissue through ATG4B cryptic splicing inhibition” (Acta Neuropathologica, 2024).

System: ALS
Conditions: ALS patients; no reference given; cited from earlier work

Structure (SMILES): Nc1nc2ccc(OC(F)(F)F)cc2s1 [Riluzole]
- prolongation of survival: two to six
